Measurements reported in the Kinase Knowledgebase extract (Sharma et al. 2016).

Amino acid sequences for entries named in this document (tags omitted). A change or cut given only in a name is not applied to a line headed by its entry.
UniProt P42338: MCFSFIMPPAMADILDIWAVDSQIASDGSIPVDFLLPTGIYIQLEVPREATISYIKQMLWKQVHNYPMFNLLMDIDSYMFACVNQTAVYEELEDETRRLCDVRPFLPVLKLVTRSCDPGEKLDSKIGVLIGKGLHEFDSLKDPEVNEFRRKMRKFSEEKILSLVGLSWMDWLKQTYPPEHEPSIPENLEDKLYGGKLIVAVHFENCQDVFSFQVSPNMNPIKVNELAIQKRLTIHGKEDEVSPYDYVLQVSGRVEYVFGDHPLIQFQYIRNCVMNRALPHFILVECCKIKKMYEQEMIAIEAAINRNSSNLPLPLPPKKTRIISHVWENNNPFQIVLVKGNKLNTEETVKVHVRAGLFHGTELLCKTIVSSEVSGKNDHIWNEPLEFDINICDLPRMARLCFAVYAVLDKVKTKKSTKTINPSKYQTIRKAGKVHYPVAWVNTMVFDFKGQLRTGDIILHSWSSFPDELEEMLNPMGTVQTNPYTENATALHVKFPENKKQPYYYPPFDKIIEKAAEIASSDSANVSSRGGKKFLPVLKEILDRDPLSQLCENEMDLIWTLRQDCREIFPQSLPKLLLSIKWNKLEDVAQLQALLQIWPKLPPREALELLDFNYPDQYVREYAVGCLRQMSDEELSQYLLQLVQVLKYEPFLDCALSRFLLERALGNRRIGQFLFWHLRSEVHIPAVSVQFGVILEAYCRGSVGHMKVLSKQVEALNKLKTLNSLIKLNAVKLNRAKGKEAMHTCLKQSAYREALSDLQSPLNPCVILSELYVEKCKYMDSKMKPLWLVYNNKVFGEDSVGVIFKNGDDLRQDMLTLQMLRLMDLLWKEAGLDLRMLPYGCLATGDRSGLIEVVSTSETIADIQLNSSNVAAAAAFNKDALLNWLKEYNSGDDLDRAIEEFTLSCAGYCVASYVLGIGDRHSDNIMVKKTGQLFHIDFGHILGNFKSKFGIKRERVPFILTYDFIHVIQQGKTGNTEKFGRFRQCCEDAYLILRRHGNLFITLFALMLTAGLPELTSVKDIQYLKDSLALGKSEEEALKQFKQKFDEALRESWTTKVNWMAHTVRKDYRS
UniProt O00329: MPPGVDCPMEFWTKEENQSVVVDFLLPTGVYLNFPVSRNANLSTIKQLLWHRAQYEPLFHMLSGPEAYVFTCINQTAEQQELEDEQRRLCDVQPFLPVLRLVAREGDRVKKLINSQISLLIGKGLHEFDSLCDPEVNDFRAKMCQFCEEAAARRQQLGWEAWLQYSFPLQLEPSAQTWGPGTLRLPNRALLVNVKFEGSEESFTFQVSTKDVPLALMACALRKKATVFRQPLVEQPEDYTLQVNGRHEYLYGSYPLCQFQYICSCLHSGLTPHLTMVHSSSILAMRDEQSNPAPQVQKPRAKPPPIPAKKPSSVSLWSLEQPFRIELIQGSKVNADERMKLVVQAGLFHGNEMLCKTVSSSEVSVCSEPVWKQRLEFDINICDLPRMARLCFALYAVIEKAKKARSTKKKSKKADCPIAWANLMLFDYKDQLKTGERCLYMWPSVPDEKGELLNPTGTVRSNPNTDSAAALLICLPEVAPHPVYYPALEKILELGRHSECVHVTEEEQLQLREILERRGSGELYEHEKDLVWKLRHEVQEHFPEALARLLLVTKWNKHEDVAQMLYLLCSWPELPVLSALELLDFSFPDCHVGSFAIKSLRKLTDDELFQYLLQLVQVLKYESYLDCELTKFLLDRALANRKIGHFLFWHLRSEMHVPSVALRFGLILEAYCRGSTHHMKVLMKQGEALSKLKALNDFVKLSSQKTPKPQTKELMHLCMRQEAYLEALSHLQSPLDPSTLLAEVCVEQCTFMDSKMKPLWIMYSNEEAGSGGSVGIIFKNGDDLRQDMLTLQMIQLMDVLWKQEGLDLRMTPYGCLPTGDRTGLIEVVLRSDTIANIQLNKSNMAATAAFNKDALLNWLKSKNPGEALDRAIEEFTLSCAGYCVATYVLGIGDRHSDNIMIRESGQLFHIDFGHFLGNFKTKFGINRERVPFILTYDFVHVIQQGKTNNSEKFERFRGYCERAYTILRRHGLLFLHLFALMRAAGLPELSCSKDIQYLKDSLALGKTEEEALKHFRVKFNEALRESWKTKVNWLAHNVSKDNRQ

Columns and labels:
[1] = target: PIK3CB (Human) (UniProt P42338); assay: Enzyme Assay
[2] = target: PIK3CD (Human) (UniProt O00329); assay: Enzyme Assay

Row | SMILES | IC50 [1] [µM] | IC50 [2] [µM]
1 | C[C@H](NC(=O)c1c(N)nn2cccnc12)c1cc2cccc(C#Cc3cn(C)cn3)c2c(=O)n1-c1ccccc1 | 1 to 5 | 1 to 5
2 | C[C@H](NC(=O)c1c(N)nn2cccnc12)c1cc2cccc(C#Cc3ccc(=O)[nH]c3)c2c(=O)n1-c1ccccc1 | 5 to 10 | –
